Patent US4103011A, “Novel penicillin compounds and process for preparation thereof” (priority 1976, dated 1978)

Test: in vivo
Conditions: mouse

In the case of `CCn1cc(C(=O)O)c(=O)c2cnc(N3CCNCC3)nc21` [Compound J, 5,8-Dihydro-8-ethyl-2-(1-piperazinyl)-5-oxopyrido[2,3-d]pyrimidine-6-carboxylic acid], the selectivity ratio (iv) is reported as 17, the LD50 at 168 h (sc) is reported as 2240 mg/kg and the selectivity ratio (sc) is reported as 60.
